Results as given in patent US9439888B2, “Tetrazolones as a carboxylic acid bioisosteres” (RIGEL PHARMACEUTICALS, INC., priority 2015, dated 2016).

Molecular target: T1, angiotensin II receptor type 1 (AT1) (Homo sapiens, UniProt P30556)
T1 construct: expressed in transfected cells; host or cells: HEK-293
Assay: AT1 antagonist activity: inhibition of response to 3 nM angiotensin-II, intracellular Ca2+ by fluorimetry
Format: cell-based
Settings: HEK-293 cells expressing hAT1

Kb: 440 pM
Compound: CCCc1nc2c(C)cc(-c3nc4ccccc4n3C)cc2n1Cc1ccc(-c2ccccc2C(=O)O)cc1 [Telmisartan, reference compound]
